Structures can show the parent of a compound that is named as a salt.
Key:
[1] = biological target: T1, AmphiAmR11 (Branchiostoma floridae, UniProt A0PF35); test: Inhibition of forskolin-stimulated cAMP levels in AmphiAmR11-expressing CHO-K1 cells (agonist mode); assay type: cell-based
[2] = biological target: T1, AmphiAmR11; test: Block of tyramine-induced inhibition of forskolin-stimulated cAMP levels in AmphiAmR11-expressing CHO-K1 cells; assay type: cell-based; conditions: 1 μM antagonist, 30 nM tyramine
[3] = biological target: T1, AmphiAmR11; test: ERK1/2 phosphorylation in AmphiAmR11-expressing CHO-K1 cells (Western blotting); assay type: cell-based
[4] = biological target: T1, AmphiAmR11; test: Block of dopamine-induced ERK1/2 activation in AmphiAmR11-expressing CHO-K1 cells by antagonists; assay type: cell-based; conditions: 1 µM antagonist, 10 nM dopamine, 5 min
[5] = tested on: DD2R; design: method as in PMID 12391323; conditions: cited from earlier work

The chains behind the UniProt entries cited, without tags or fusion partners.
UniProt A0PF35, entry or part of it: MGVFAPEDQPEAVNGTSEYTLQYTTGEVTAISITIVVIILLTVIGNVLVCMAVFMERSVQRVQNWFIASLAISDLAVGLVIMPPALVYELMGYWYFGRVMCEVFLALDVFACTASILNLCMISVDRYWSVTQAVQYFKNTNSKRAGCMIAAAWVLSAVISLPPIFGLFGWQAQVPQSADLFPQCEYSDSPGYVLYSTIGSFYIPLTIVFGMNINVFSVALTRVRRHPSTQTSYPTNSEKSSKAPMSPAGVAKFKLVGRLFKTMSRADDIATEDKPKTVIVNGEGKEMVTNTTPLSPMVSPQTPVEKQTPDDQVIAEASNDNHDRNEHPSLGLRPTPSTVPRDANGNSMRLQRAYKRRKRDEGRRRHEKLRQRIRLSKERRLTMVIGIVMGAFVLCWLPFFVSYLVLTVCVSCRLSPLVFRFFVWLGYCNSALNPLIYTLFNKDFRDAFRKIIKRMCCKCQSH

SMILES | Decrease of forskolin-stimulated cAMP levels by antagonist in the absence of agonist ([1]; 1 μM antagonist, 10 µM forskolin) | Agonist type at AmphiAmR11 (full or partial) ([1]; cAMP assay) | Inhibition of forskolin-stimulated cAMP levels (maximal) ([1]; concentration-response curves, absence of other agonist) | Apparent enhancement of tyramine-induced inhibition of forskolin-stimulated cAMP levels [2] | Block of tyramine-induced inhibition of forskolin-stimulated cAMP levels ([2]; 10 µM forskolin) | Effect of antagonist on ERK1/2 phosphorylation in the absence of dopamine ([3]; 1 μM antagonist) | Block of dopamine-induced ERK1/2 activation [4] | Effect on forskolin-stimulated cAMP levels at 1 µM ([1]; 1 µM agonist, 10 µM forskolin, 100 µM IBMX, 20 min) | Effect on ERK1/2 phosphorylation at 1 µM [3] | Activation of DD2R [5]
CN1CCN2c3ccccc3Cc3ccccc3C2C1 (stereo not shown) [mianserin, mianserin hydrochloride] | could inhibit forskolin-stimulated cAMP levels | full agonists | greater than 90% | appeared to enhance | no significant blocking effect | increase in ERK1/2 phosphorylation | no significant effect |  |  | 
CCCN1CCC[C@@H]2Cc3n[nH]cc3C[C@H]21 [quinpirole, (-)-quinpirole hydrochloride] |  |  |  |  |  |  |  | most effective agonists | most effective of the synthetic agonists | not to activate
